# Measurements taken from ChEMBL document CHEMBL1136958, “Design and optimization of renin inhibitors: Orally bioavailable alkyl amines” (Bioorg Med Chem Lett, 2009).
# By UniProt entry, the sequences of proteins in these tests, tags left out. Where a name states a change or a piece, a line headed by the entry shows the natural chain unless it says otherwise.
# UniProt P00797: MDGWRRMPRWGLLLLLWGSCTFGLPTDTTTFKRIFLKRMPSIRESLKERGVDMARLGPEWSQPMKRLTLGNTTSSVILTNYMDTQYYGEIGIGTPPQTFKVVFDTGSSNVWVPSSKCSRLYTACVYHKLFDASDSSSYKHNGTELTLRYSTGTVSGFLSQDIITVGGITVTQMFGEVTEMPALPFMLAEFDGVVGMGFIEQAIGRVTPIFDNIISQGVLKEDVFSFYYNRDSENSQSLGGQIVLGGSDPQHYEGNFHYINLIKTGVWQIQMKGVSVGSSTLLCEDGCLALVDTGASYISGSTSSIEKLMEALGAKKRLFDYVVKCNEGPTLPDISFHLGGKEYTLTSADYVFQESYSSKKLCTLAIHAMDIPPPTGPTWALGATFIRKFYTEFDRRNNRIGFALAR
# Biological target: Renin (Homo sapiens, UniProt P00797)
# Experiment: Inhibition of human recombinant renin
smiles,measurement,value
CNC[C@H](CC1CCCCC1)NC(=O)N1CCC[C@@H]([C@@](O)(CCCCOC)c2cccc(Cl)c2)C1,IC50,0.47 nM
